Our source for the EC50 values is US5929063A, “Mercapto and seleno derivatives as inhibitors of nitric oxide synthase” (priority 1995, dated 1999).

The experiment deals with T1, ecNOS (Bos taurus, UniProt P29473).
T1 construct: the intimal surface of fresh bovine aortae was scraped and homogenized; from tissue; host or cells: homogenate of intimal scrapings of fresh bovine aortae
Kind of experiment: ecNOS activity from intimal scrapings of fresh bovine aortae (conversion of [3H]-L-arginine to [3H]-L-citrulline). It is filed as biochemical. Particulars: ecNOS (Table 2); read-out: EC50 for inhibition of ecNOS activity in tissue homogenates. Here is the method:
The intimal surface of fresh bovine aortae was scraped in the presence of homogenation buffer composed of 50 mM Tris-HCl, 0.1 mM ethylenediamine tetraacetic acid (EDTA) and 0.1 mM ethyleneglycol bis (beta-aminoethyl ether) (EGTA). Conversion of [^3 H]-L-arginine to [^3 H]-L-citrulline was measured in the homogenates as follows: cell homogenate (50 μl) was incubated in the presence of [^3 H]-L-arginine (10 μM, 5 kBq/tube), NADPH (2 mM), calmodulin (30 nM), tetrahydrobiopterin (5 μM) and calcium (2 mM) for 20 minutes at 37° C. in N-2-hydroxethyl piperazine-N-2-ethane sulfonic acid (HEPES) buffer (pH 7.5). Reactions were stopped by dilution with 1 ml of ice cold HEPES buffer (pH 5.5) containing EGTA (2 mM) and EDTA (2 mM). Reaction mixtures were applied to Dowex 50W (Na^+ form) columns and the eluted [^3 H]-L-citrulline activity was measured by scintillation counting. bNOS activity was measured using similar methods in homogenates of whole rat brains.
For a preparation rich in ecNOS, the intimal surface of fresh bovine aortae was scraped and homogenized. The homogenization buffer was composed of 50 mM tris-HCL, 0.1 mM EDTA, 0.1 mM EGTA and 1 mM phenylmethylsulfonyl chloride (pH 7.4). […] Conversion of [^3 H]-L-arginine to [^3 H]-L-citrulline was measured in the homogenates as described in Example 3 above.

On to `N=C(NCCC[C@H](N)C(=O)O)N[N+](=O)[O-]` [L-NA, N^G -Nitro-L-arginine, reference compound], for which the EC50 was 2000 nM.

As usually defined, the EC50 is the concentration that produces a half-maximal response.
